Earlier results in article PMC5964550 (Contrast Media & Molecular Imaging, 2018).

What was measured:
[1] = system: P-gp; conditions: cited from earlier work
[2] = system: breast cancer resistance protein (ABCG2); conditions: cited from earlier work
[3] = system: human organic cation transporter 1 (OCT1, SLC22A1); conditions: in vitro; cited from earlier work

For CCN(CC)CCNC(=O)c1cc(Cl)c(N)cc1OC [metoclopramide], the P-gp inhibitor status [1] is given as “not a P-gp inhibitor”, the “substrate of ABCG2” value [2] is given as “not a substrate” and the “substrate of human OCT1” value [3] is given as “substrate”.
